According to PubChem BioAssay (NCI):
Some salts and complexes are drawn in separate pieces, as the source files them; their charges need not balance.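 Where inhibition never reached the appropriate level, the endpoint shown equals the highest concentration tested. Otherwise, values were interpolated linearly from a five-concentration, 48-hour dose response in 96-well plates. GI50 = concentration required for 50% inhibition of growth. TGI: total growth inhibition.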

Key:
Assay in all cases: NCI tumour cell line growth inhibition, 48 h
[1] = system: IGROV1 ovarian
[2] = system: SNB-75 CNS
[3] = system: 786-0 renal
[4] = system: T-47D breast
[5] = system: NCI-H226 lung
[6] = system: KM12 colon
[7] = system: UACC-62 melanoma
[8] = system: SNB-19 CNS
[9] = system: RXF 393 renal
[10] = system: A498 renal
[11] = system: OVCAR-4 ovarian
[12] = system: SK-MEL-5 melanoma
[13] = system: HOP-62 NSCLC
[14] = system: COLO 205 colon
[15] = system: SW-620 colon
[16] = system: NCI-H460 lung
[17] = system: NCI-H23 lung
[18] = system: EKVX NSCLC
[19] = system: MALME-3M melanoma
[20] = system: SF-268 CNS
[21] = system: A549 NSCLC
[22] = system: HCT-116 colon
[23] = system: NCI-H522 lung
[24] = system: MDA-N
[25] = system: SN12C renal
[26] = system: PC-3 prostate
[27] = system: SF-295 CNS
[28] = system: HS 578T breast
[29] = system: HL-60(TB) leukemia
[30] = system: MDA-MB-435
[31] = system: U251 CNS
[32] = system: M14 melanoma
[33] = system: BT-549 breast
[34] = system: DU-145 prostate
[35] = system: MCF7 breast
[36] = system: UACC-257 melanoma
[37] = system: NCI/ADR-RES ovarian
[38] = system: SF-539 CNS
[39] = system: HT29 colon
[40] = system: HOP-92 NSCLC
[41] = system: CCRF-CEM leukemia
[42] = system: HCC-2998 colon
[43] = system: HCT-15 colon
[44] = system: LOX IMVI melanoma
[45] = system: MDA-MB-231 breast
[46] = system: SK-MEL-2 melanoma
[47] = system: NCI-H322M lung
[48] = system: OVCAR-8 ovarian
[49] = system: MOLT-4 leukemia
[50] = system: SK-OV-3 ovarian
[51] = system: UO-31 renal
[52] = system: RPMI-8226 leukemia
[53] = system: OVCAR-5 ovarian
[54] = system: SK-MEL-28 melanoma
[55] = system: ACHN renal
[56] = system: OVCAR-3 ovarian
[57] = system: K-562 leukemia
[58] = system: TK-10 renal

With `CN([PH+](F)F)[PH+](F)F.CN([PH+](F)F)[PH+](F)F.[C-]#[O+].[C-]#[O+].[C-]#[O+].[C-]#[O+].[CH-]=O.[Fe].[Fe]` the GI50 [1] was 2.46 µM, the TGI [1] was 11.7 µM and the GI50 [2] was 0.677 µM. The TGI [2] was 4.54 µM, the GI50 [3] was 1.36 µM and the TGI [3] was 2.81 µM. For the same compound, the GI50 [4] was 1.47 µM, the TGI [4] was 12.4 µM and the GI50 [5] was 4.85 µM. The TGI [5] was 20.6 µM, the GI50 [6] was 0.616 µM and the TGI [6] was 2.37 µM. For the same compound, the GI50 [7] was 2.43 µM, the TGI [7] was 12 µM and the GI50 [8] was 3.39 µM. For the same compound, the TGI [8] was 15.3 µM, the GI50 [9] was 2.1 µM and the TGI [9] was 5.32 µM. For the same compound, the GI50 [10] was 3.12 µM, the TGI [10] was 13.1 µM and the GI50 [11] was 1.64 µM. For the same compound, the TGI [11] was 8.77 µM, the GI50 [12] was 0.728 µM and the TGI [12] was 1.85 µM. For the same compound, the GI50 [13] was 2.6 µM, the TGI [13] was 11.9 µM and the GI50 [14] was 1.5 µM. For the same compound, the TGI [14] was 3.22 µM, the GI50 [15] was 1.71 µM and the TGI [15] was 6.07 µM. It also gave a GI50 [16] of 1.52 µM, a TGI [16] of 5.86 µM and a GI50 [17] of 1.45 µM. It also gave a TGI [17] of 7.44 µM, a GI50 [18] of 2.73 µM and a TGI [18] of 13.2 µM. It also gave a GI50 [19] of 1.38 µM, a TGI [19] of 3.61 µM and a GI50 [20] of 1.12 µM. The TGI [20] was 7.43 µM, the GI50 [21] was 1.91 µM and the TGI [21] was 13.6 µM. For the same compound, the GI50 [22] was 2.02 µM, the TGI [22] was 6.41 µM and the GI50 [23] was 0.692 µM. The TGI [23] was 2.44 µM, the GI50 [24] was 1.67 µM and the TGI [24] was 3.38 µM. The GI50 [25] was 2.12 µM, the TGI [25] was 5.66 µM and the GI50 [26] was 20.4 µM. It also gave a TGI [26] of 36.8 µM, a GI50 [27] of 1.67 µM and a TGI [27] of 4.2 µM. It also gave a GI50 [28] of 2.49 µM, a TGI [28] of 13 µM and a GI50 [29] of 0.29 µM. For the same compound, the TGI [29] was 1.91 µM, the GI50 [30] was 2.1 µM and the TGI [30] was 6.96 µM. For the same compound, the GI50 [31] was 1.88 µM, the TGI [31] was 5.81 µM and the GI50 [32] was 2.13 µM. For the same compound, the TGI [32] was 9.85 µM, the GI50 [33] was 0.94 µM and the TGI [33] was 2.43 µM. It also gave a GI50 [34] of 3.8 µM, a TGI [34] of 15.2 µM and a GI50 [35] of 1.04 µM. It also gave a TGI [35] of 4.35 µM, a GI50 [36] of 1.76 µM and a TGI [36] of 5.77 µM. The GI50 [37] was 46.8 µM, the TGI [37] was > 100 µM and the GI50 [38] was 2.15 µM. It also gave a TGI [38] of 5.02 µM, a GI50 [39] of 0.584 µM and a TGI [39] of 1.91 µM. It also gave a GI50 [40] of 1.72 µM, a TGI [40] of 6.01 µM and a GI50 [41] of 0.366 µM. The TGI [41] was > 100 µM, the GI50 [42] was 2.3 µM and the TGI [42] was 7.46 µM. It also gave a GI50 [43] of 4.37 µM, a TGI [43] of 14.9 µM and a GI50 [44] of 1.44 µM. The TGI [44] was 2.78 µM, the GI50 [45] was 1.98 µM and the TGI [45] was 4.66 µM. It also gave a GI50 [46] of 1.48 µM, a TGI [46] of 3.18 µM and a GI50 [47] of 2.47 µM. It also gave a TGI [47] of 7.59 µM, a GI50 [48] of 2.06 µM and a TGI [48] of 7.2 µM. It also gave a GI50 [49] of 0.675 µM, a TGI [49] of 3.41 µM and a GI50 [50] of 3.84 µM. For the same compound, the TGI [50] was 12.4 µM, the GI50 [51] was 4.16 µM and the TGI [51] was 16.3 µM. The GI50 [52] was 0.332 µM, the TGI [52] was 2.04 µM and the GI50 [53] was 8.33 µM. For the same compound, the TGI [53] was 23 µM, the GI50 [54] was 1.04 µM and the TGI [54] was 2.49 µM. It also gave a GI50 [55] of 5.02 µM, a TGI [55] of 18 µM and a GI50 [56] of 0.331 µM. It also gave a TGI [56] of 1.34 µM, a GI50 [57] of 0.37 µM and a TGI [57] of 15.5 µM. It also gave a GI50 [58] of 4.14 µM and a TGI [58] of 15.1 µM.
